pIC50: −log10 of the molar value.
Target: Acetylcholinesterase (Rattus norvegicus, UniProt P37136)
Assay: Inhibition of rat brain Acetylcholinesterase using acetylthiocholine as substrate in presence of BChE inhibitor ethopropazine by spectrophotometric method

c1ccc2c(NCCCCCCCCCNc3c4c(nc5ccccc35)CCCC4)c3c(nc2c1)CCCC3
pIC50: 9.11
